CycPeptMPDB entries from one study

Collected by the curators of CycPeptMPDB (Li et al. 2023) from Furukawa et al. 2016, doi:10.1021/acs.jmedchem.6b01246.

PAMPA is the parallel artificial membrane permeability assay, which has no cells and reads passive diffusion.
Permeability is given as log10 of P in cm/s; higher (less negative) is more permeable.
A structure that stands twice has two entries in the source.

structure (SMILES),PAMPA (log10 cm/s)
CCCC[C@@H]1NC(=O)[C@H](CC(C)C)N(C)C(=O)CN(CC2CCOCC2)C(=O)[C@H](C)NC(=O)CN(CC)C(=O)[C@H]2CCCN2C1=O,-6.76
CCCC[C@@H]1NC(=O)[C@H](CC(C)C)NC(=O)CN(CC2CCOCC2)C(=O)[C@@H](Cc2ccccc2)NC(=O)CN(Cc2ccc3c(c2)OCO3)C(=O)[C@H]2CCCN2C1=O,-5.90
CCCCCN1CC(=O)N[C@@H](CC(C)C)C(=O)N[C@@H](CCCC)C(=O)N2CCC[C@H]2C(=O)N(CC)CC(=O)N[C@@H](C)C1=O,-6.76
CCCC[C@@H]1NC(=O)[C@@H](CC(C)C)N(C)C(=O)CN(CC2CCOCC2)C(=O)[C@@H](Cc2ccccc2)NC(=O)CN(CC)C(=O)[C@@H]2CCCN2C1=O,-6.22
CCCC[C@@H]1NC(=O)[C@H](CC(C)C)NC(=O)CN(CC2CCCCC2)C(=O)[C@H](C)NC(=O)CN(CC)C(=O)[C@@H]2CCCN2C1=O,-6.39
CCCCCN1CC(=O)N[C@H](CC(C)C)C(=O)N[C@@H](CCCC)C(=O)N2CCC[C@H]2C(=O)N(CCCOC(C)C)CC(=O)N[C@@H](C)C1=O,-5.58
CCCC[C@@H]1NC(=O)[C@H](CC(C)C)N(C)C(=O)CN(CC2CCOCC2)C(=O)[C@H](C)NC(=O)CN(CC)C(=O)[C@H]2CCCN2C1=O,-7.27
CCCCCN1CC(=O)N(C)[C@@H](CC(C)C)C(=O)N[C@@H](CCCC)C(=O)N2CCC[C@@H]2C(=O)N(CCCOC(C)C)CC(=O)N[C@@H](C)C1=O,-4.97
CCCC[C@@H]1NC(=O)[C@H](CC(C)C)NC(=O)CN(CC2CCOCC2)C(=O)[C@H](Cc2ccccc2)NC(=O)CN(CC)C(=O)[C@@H]2CCCN2C1=O,-6.37
CCCC[C@@H]1NC(=O)[C@@H](CC(C)C)N(C)C(=O)CN(CC2CCCCC2)C(=O)[C@@H](C)NC(=O)CN(Cc2ccc3c(c2)OCO3)C(=O)[C@H]2CCCN2C1=O,-5.13
CCCCCN1CC(=O)N[C@H](CC(C)C)C(=O)N[C@@H](CCCC)C(=O)N2CCC[C@@H]2C(=O)N(Cc2ccc3c(c2)OCO3)CC(=O)N[C@@H](Cc2ccccc2)C1=O,-5.23
CCCC[C@@H]1NC(=O)[C@@H](CC(C)C)N(C)C(=O)CN(CC2CCCCC2)C(=O)[C@@H](Cc2ccccc2)NC(=O)CN(CCCOC(C)C)C(=O)[C@@H]2CCCN2C1=O,-5.01
CCCCCN1CC(=O)N(C)[C@H](CC(C)C)C(=O)N[C@@H](CCCC)C(=O)N2CCC[C@H]2C(=O)N(Cc2ccc3c(c2)OCO3)CC(=O)N[C@@H](Cc2ccccc2)C1=O,-5.81
CCCCCN1CC(=O)N[C@@H](CC(C)C)C(=O)N[C@@H](CCCC)C(=O)N2CCC[C@@H]2C(=O)N(CCCOC(C)C)CC(=O)N[C@@H](Cc2ccccc2)C1=O,-4.95
CCCC[C@@H]1NC(=O)[C@H](CC(C)C)NC(=O)CN(CC2CCOCC2)C(=O)[C@@H](C)NC(=O)CN(Cc2ccc3c(c2)OCO3)C(=O)[C@H]2CCCN2C1=O,-7.23
CCCC[C@@H]1NC(=O)[C@@H](CC(C)C)N(C)C(=O)CN(CC2CCCCC2)C(=O)[C@@H](C)NC(=O)CN(Cc2ccc3c(c2)OCO3)C(=O)[C@@H]2CCCN2C1=O,-5.10
CCCCCN1CC(=O)N[C@@H](CC(C)C)C(=O)N[C@@H](CCCC)C(=O)N2CCC[C@@H]2C(=O)N(CC)CC(=O)N[C@@H](C)C1=O,-6.52
CCCC[C@@H]1NC(=O)[C@@H](CC(C)C)N(C)C(=O)CN(CC2CCOCC2)C(=O)[C@H](C)NC(=O)CN(CCCOC(C)C)C(=O)[C@H]2CCCN2C1=O,-5.95
CCCC[C@@H]1NC(=O)[C@@H](CC(C)C)N(C)C(=O)CN(CC2CCOCC2)C(=O)[C@@H](Cc2ccccc2)NC(=O)CN(Cc2ccc3c(c2)OCO3)C(=O)[C@H]2CCCN2C1=O,-5.29
CCCCCN1CC(=O)N[C@@H](CC(C)C)C(=O)N[C@@H](CCCC)C(=O)N2CCC[C@H]2C(=O)N(CC)CC(=O)N[C@@H](Cc2ccccc2)C1=O,-5.23

Again, the 2 entries with the lowest PAMPA:

structure (SMILES),PAMPA (log10 cm/s)
CCCC[C@@H]1NC(=O)[C@H](CC(C)C)N(C)C(=O)CN(CC2CCOCC2)C(=O)[C@H](C)NC(=O)CN(CC)C(=O)[C@H]2CCCN2C1=O,-7.27
CCCC[C@@H]1NC(=O)[C@H](CC(C)C)NC(=O)CN(CC2CCOCC2)C(=O)[C@@H](C)NC(=O)CN(Cc2ccc3c(c2)OCO3)C(=O)[C@H]2CCCN2C1=O,-7.23

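Conditions beyond the assay type are not listed; see the original paper. The list need not hold all peptides of the study. Entries at the database's floor value (log10 P of -10) are not listed.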